This passage reports cleavage by pancreatin results from US12577190B2, “Method for producing polyol-based esters of ketocarboxylic acids” (KetoLipix Therapeutics GmbH, priority 2019, dated 2026).

The subject of the data set is pancreatin (Panzytrat 40,000). Kind of data set: Cleavage experiments with pancreatin, acid number recorded over time. The following applies: individual esters in pure form, water, 50° C. The method, then:
Both media are from the company Biorelevant®, Ltd. in Great Britain. In addition, in some experiments porcine pancreas is added (Panzytrat® 40,000, Fa. Allergan).
The pancreatin is used in the form of the commercially available product Panzytrat® 40,000 from the Allergan company. The whole mixture is stirred on a hot plate at 50° C.; the course of the reaction is determined and monitored by continuously recording the acid number over time.

For the substance “3-oxobutyric acid tetra-diglycerol ester”, the cleavage by pancreatin entry is “cleaved”.
